# Source: ChEMBL document CHEMBL1154493, “Oxidative inactivation of protein tyrosine phosphatase 1B by organic hydroperoxides” (Bioorg Med Chem Lett, 2008)
# Tests used:
# [1] = biological target: T1, Tyrosine-protein phosphatase non-receptor type 1 (Homo sapiens) (UniProt P18031); assay: Inactivation of PTP1B assessed as return of enzyme activity at 50 uM after 1 hr in presence of dithiothreitol
# T1 sequence (whole entry): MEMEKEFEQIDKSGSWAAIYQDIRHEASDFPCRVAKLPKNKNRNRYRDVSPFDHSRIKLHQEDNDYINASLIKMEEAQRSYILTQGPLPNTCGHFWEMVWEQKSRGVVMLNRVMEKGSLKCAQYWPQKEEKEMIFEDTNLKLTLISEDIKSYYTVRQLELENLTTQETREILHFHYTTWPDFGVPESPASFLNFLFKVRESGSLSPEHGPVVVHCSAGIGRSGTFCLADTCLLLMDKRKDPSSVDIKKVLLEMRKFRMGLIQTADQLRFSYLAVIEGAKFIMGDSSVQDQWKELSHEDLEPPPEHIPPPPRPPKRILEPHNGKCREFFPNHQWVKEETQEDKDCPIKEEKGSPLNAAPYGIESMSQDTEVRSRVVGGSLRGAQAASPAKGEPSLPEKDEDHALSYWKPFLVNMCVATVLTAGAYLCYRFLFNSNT
# [2] = biological target: T1, Tyrosine-protein phosphatase non-receptor type 1 (Homo sapiens); assay: Inhibition of PTP1B assessed as inhibition rate constant
structure (smiles),measurement,setting,value
OOC1CCCO1 (configuration not stated),Activity,[1],54%
same,Activity,[2],20.3 M⁻¹ s⁻¹
